Assay results published in patent US3969530A, “4-Hydroxy-3,5-di-alkyl-phenyl-propionic acid composition suitable as lipid lowering and anti-diabetic agents” (Hoechst Aktiengesellschaft, priority 1972, dated 1976).

Experiment: in vivo
Conditions: mouse, po, male mice

Work on `CC(C)(C)c1cc(CCC(=O)OCC(COC(=O)CCc2cc(C(C)(C)C)c(O)c(C(C)(C)C)c2)(COC(=O)CCc2cc(C(C)(C)C)c(O)c(C(C)(C)C)c2)COC(=O)CCc2cc(C(C)(C)C)c(O)c(C(C)(C)C)c2)cc(C(C)(C)C)c1O` [Example 7, Tetra-(4-hydroxy-3,5-di-t.-butylphenyl-propionic acid)-pentaerythritol ester] yielded an LD50 greater than 8000 mg/kg.
